Consider two compounds from ChEMBL document CHEMBL4396950, “A rational search for discovering potential neutraligands of human complement fragment 5a (hC5a)” (Bioorg Med Chem, 2019).

The chains behind the UniProt entries cited, without tags or fusion partners.
UniProt P01031, whole entry: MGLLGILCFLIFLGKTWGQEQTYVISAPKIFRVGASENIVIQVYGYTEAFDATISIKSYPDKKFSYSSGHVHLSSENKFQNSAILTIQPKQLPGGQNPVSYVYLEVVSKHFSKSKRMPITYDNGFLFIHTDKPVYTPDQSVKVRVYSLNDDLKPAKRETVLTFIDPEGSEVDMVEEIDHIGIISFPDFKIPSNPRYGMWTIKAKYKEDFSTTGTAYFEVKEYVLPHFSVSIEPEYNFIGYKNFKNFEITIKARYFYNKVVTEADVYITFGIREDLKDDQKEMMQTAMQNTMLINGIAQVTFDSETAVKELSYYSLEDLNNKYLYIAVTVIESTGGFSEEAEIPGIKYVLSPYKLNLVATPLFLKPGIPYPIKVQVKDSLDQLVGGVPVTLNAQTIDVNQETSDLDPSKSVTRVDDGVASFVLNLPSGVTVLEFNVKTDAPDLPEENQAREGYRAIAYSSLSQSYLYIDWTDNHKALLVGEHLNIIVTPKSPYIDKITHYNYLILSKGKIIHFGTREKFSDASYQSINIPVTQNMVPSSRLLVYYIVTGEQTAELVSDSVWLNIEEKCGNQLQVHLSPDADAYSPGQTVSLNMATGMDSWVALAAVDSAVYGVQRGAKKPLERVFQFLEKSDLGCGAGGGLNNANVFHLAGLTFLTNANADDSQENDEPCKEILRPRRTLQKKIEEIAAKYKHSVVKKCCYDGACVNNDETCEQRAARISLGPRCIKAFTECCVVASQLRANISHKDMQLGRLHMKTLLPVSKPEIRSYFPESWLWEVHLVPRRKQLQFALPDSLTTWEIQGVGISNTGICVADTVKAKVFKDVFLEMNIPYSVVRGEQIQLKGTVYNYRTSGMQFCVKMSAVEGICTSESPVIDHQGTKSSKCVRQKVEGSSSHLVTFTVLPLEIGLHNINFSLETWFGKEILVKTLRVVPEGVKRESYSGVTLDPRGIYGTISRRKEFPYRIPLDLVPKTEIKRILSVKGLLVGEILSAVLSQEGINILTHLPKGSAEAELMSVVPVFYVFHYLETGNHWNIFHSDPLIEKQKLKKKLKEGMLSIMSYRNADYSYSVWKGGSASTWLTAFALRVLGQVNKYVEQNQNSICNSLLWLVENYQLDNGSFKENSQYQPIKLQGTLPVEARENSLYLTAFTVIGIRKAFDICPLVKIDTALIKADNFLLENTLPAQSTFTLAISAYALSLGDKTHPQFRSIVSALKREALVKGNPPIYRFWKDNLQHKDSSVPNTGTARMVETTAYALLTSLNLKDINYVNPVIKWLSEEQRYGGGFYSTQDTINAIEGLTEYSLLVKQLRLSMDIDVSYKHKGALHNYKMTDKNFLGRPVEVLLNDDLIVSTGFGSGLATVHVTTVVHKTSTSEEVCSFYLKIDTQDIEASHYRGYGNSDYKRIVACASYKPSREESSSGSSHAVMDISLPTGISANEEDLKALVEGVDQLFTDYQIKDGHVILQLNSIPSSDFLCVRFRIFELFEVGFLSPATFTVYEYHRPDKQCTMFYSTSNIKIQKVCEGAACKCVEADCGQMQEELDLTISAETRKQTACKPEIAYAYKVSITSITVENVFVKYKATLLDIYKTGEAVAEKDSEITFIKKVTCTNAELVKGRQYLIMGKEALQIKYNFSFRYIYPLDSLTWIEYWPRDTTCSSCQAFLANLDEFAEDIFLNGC

Activity calls are given as the source filed them. The calls are words filed in the database; no cut-off is given here.

Assay [1] concerns the target T1, Complement C5 (Homo sapiens, UniProt P01031). In words: Binding affinity to human C5a assessed as induction of conformational change by measuring red shift in absorption maxima at 1 uM by fluorescence analysis.
For assay [2], the target named is T1, Complement C5. Nature of the assay: Binding affinity to recombinant human C5a assessed as conformational change at 1 to 100 uM incubated for 1 hr at 4degC by circular dichroism analysis.
Assay [3] concerns the target T1, Complement C5. Nature of the assay: Binding affinity to human C5a assessed as loss of secondary structure by measuring red shift in absorption maxima at 10 to 100 uM by fluorescence analysis.
The target of assay [4] is T1, Complement C5. Nature of the assay: Binding affinity to recombinant human C5a assessed as conformational change =< 1 uM at 4 degC incubated for 1 hr by circular dichroism analysis. Background: Circular dichroism is the unequal absorption of left and right circularly polarised light.
Assay [5] concerns the target T1, Complement C5. Nature of the assay: Induction of human recombinant C5a unfolding by circular dichroism analysis.
The target of assay [6] is T1, Complement C5. In words: Binding affinity to recombinant human C5a assessed as loss of super secondary structure at > 10 uM incubated for 1 hr at 4 degC by circular dichroism analysis.
The target of assay [7] is T1, Complement C5. In words: Induction of human recombinant C5a destabilization assessed as protein structure helicity up to 10 uM by circular dichroism analysis.
For assay [8], the target named is T1, Complement C5. Nature of the assay: Binding affinity to human C5a assessed as induction of conformational change with no shift in absorption maxima at 1 uM by fluorescence analysis.
Assay [9] has as its target T1, Complement C5. Nature of the assay: Binding affinity to human C5a assessed as change in enthalpy at 80 uM by isothermal titration calorimetry.

For `CC(C(=O)O)c1ccc2c(c1)[nH]c1ccc(Cl)cc12` (stereo not given) [CARPROFEN], the outcome on Complement C5 [1], on Complement C5 [2], on Complement C5 [3], at Complement C5 [4], on Complement C5 [5] and on Complement C5 [6] was Active. For the same compound, the Activity on Complement C5 [7] was found to be 5%.

In the case of `O=C(c1ccc(OCCN2CCCCC2)cc1)c1c(-c2ccc(O)cc2)sc2cc(O)ccc12` [RALOXIFENE], the outcome at Complement C5 [2], on Complement C5 [3], on Complement C5 [4], at Complement C5 [5], on Complement C5 [6] and on Complement C5 [8] was Active. The outcome on Complement C5 [9] was Active. The Activity on Complement C5 [7] was 5%.
